# Only a part is listed here, and it is no random draw. Activity calls are given as the source filed them.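 How the source made its calls: active means GFP response vs DMSO above a set limit, about the screen mean plus 3 SD (cut at about 150% in these data); inconclusive means under 70 cell events counted for the yeast strain; inactive means the rest.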
# Experiment: TOR pathway LAP4-GFP level changes – S. cerevisiae, multiplex flow cytometry, MLPCN library, primary screen (AID 2023)
# Conditions: 3 h, at 10 µM, active compounds read high, median GFP as percent of DMSO wells
row,SMILES,GFP response vs DMSO
1,CCC(=O)N(c1ccccc1)C1(COC)CCN(CCc2cccs2)CC1,inactive: 105%
2,CCC(=O)N(c1ccccc1)C1(COC)CCN(CCn2nnn(CC)c2=O)CC1,inactive: 104%

# Reference: PubChem BioAssay AID2023 (NMMLSC, 2009)
